According to patent publication US20250129370A1, “METHOD FOR REDUCING HEPATIC TRIGLYCERIDES” (ADAERATA, LIMITED PARTNERSHIP, priority 2022, published 2025):

Tested on: LC3-II
Assay: LC3-II immunoblot in primary hepatocytes of WT and Pcsk7-/- mice
Format: cell-based, mouse
Settings: 6 h
Protocol: FIG. 13: Immunoblots of LC3 in primary hepatocytes of WT and Pcsk7^−/− mice incubated for 6 h without or with 100 M chloroquine (n=2 independent experiments performed in triplicates). Values are means±SEM. Statistical comparisons with controls were performed by an unpaired two-sided t-test. *p<0.05, **p<0.01, ***p<0.001.
To further probe this fat-burning mechanism, the inventors measured the levels of the autophagosomal marker micro-tubule-associated protein 1A/1B-light chain 3 (LC3-II) by western blot in primary hepatocytes isolated from WT and Pcsk7^−/− mice.
It is concluded that under normal diet, the lack of PC7 leads to enhanced ER-associated autophagy and hydrolysis of TG, ultimately leading to fatty acid release and their enhanced ß-oxidation in mitochondria, as reported in mice treated with an antisense oligonucleotide targeting apolipoprotein B (apoB)(Conlon et al., 2016).

SMILES: CCN(CC)CCCC(C)Nc1ccnc2cc(Cl)ccc12 (stereo not shown) [chloroquine]
- LC3-II levels: accumulation of LC3-II
